# This is a selection; strong and weak results do not stand in their true shares. Some of these compounds have results that are not shown, active ones among them. Active and inactive are the calls of the source. Rule as the data show it: active = inhibition above about 34%; inactive = the rest.
# Chains of the proteins cited; added tags and fusions are not shown.
# UniProt Q8NCG7, whole entry: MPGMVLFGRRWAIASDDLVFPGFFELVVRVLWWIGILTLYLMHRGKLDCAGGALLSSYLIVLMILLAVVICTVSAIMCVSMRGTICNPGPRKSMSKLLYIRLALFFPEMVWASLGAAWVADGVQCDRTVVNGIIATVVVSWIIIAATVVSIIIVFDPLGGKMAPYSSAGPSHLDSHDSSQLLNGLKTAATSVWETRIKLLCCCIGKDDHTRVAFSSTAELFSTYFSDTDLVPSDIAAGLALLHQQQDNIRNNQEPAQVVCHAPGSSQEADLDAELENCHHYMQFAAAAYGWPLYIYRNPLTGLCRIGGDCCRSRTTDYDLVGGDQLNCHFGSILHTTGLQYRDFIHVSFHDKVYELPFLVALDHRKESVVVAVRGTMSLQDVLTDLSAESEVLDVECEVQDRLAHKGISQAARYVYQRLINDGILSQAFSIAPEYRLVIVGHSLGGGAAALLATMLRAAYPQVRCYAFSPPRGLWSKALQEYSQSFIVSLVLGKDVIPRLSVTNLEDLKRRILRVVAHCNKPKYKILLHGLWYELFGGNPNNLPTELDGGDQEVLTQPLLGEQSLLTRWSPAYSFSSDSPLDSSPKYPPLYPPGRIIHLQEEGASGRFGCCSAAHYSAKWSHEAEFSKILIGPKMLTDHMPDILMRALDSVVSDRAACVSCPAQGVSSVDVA
# Molecular target: Diacylglycerol lipase-beta (Homo sapiens) (UniProt Q8NCG7)
# Test: DAGLB lipase inhibitors, primary screen, biochemical, fluorescence, HTS (AID 504411);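 also: 0% = enzyme with vehicle and 100% = wells lacking enzyme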
# Settings: HEK293T DAGLB membrane lysate, EnzChek fluorogenic substrate; at 5.17 µM; stronger effect = higher value
row,Structure (SMILES),inhibition
1,CN(C)C1(CNC(=O)c2ccc(Br)cc2)CCCCC1,inactive: -3.26%
2,COc1cc(C(=O)NCC2(N(C)C)CCCCC2)c([N+](=O)[O-])cc1OC,inactive: -2.97%
3,COc1cccc(C(=O)NCC2(N3CCCCC3)CCCCC2)c1,inactive: -1.31%
4,COc1ccc(Cl)cc1C(=O)NCC1(N(C)C)CCCCC1,inactive: 0.53%
5,O=C(NCC1(N2CCCCC2)CCCCC1)c1cccc(Cl)c1,inactive: -5.13%
6,O=C(OC1CN2CCC1CC2)C(CO)(c1ccccc1)c1ccccc1 (stereo unspecified),inactive: -3.22%
7,COc1ccc(Br)c(C(=O)NCC2(N3CCCCC3)CCCCC2)c1,inactive: 2.93%
8,C=C(C)C#CC(O)(C(=O)OC1CCN(C)CC1)c1ccccc1 (stereo unspecified),inactive: 1.21%
9,CN(C)c1cccc(C(=O)NCC2(N(C)C)CCCCC2)c1,inactive: 0.19%
10,CC(C)Oc1ccc(C(=O)NCC2(N(C)C)CCCCC2)cc1,inactive: -0.34%
11,O=C(OCCN1CCCC1)C(O)(c1ccccc1)c1ccccc1,inactive: 1.56%
12,O=C(NCC1(N2CCCCC2)CCCCC1)c1cc([N+](=O)[O-])ccc1Cl,inactive: -0.24%
13,CN1[C@@H]2CC[C@H]1CC(OC(=O)C(O)(c1ccccc1)c1ccccc1)C2 (stereo partly specified),inactive: 0.23%
14,CC(C)N1C(=O)CC2(CCN(CCOC(=O)C(O)(c3ccccc3)c3ccccc3)CC2)C1=O,inactive: -2.38%
15,CCN(CC)CC(C)C(C)OC(=O)C(O)(c1ccccc1)c1ccccc1 (stereo unspecified),inactive: 0.66%
16,COc1cc(SC)ccc1C(=O)NCC1(N(C)C)CCCCC1,inactive: -2.98%
17,Cc1ccc(C(=O)NCC2(N3CCCCC3)CCCCC2)cc1,inactive: 0.53%
18,Cc1ccccc1C(=O)NCC1(N2CCCCC2)CCCCC1,inactive: -5.26%
19,CN(C)c1ccc(C(=O)NCC2(N(C)C)CCCCC2)cc1,inactive: 0.23%
20,CN(C)C1CCCC1OC(=O)C(O)(c1ccccc1)c1ccccc1 (stereo unspecified),inactive: 0.77%
21,C=CCN1CCN(CCOC(=O)C(O)(c2ccccc2)c2ccccc2)CC1,inactive: -1.35%
22,O=C(NCC1(N2CCCCC2)CCCCC1)c1cc(F)c(F)cc1Cl,inactive: 1.93%
23,CCN1CCCC(OC(=O)C2(O)c3ccccc3C=Cc3ccccc32)C1 (stereo unspecified),inactive: -0.23%
24,Cc1cc(C(=O)NCC2(N3CCCCC3)CCCCC2)ccc1[N+](=O)[O-],inactive: -1.29%
25,O=C(NCC1(N2CCCCC2)CCCCC1)c1cccc(Br)c1,inactive: 0.83%
26,COc1ccc(C(=O)NCC2(N(C)C)CCCCC2)cc1,inactive: -4.79%

# Reference: PubChem BioAssay AID504411 (The Scripps Research Institute Molecular Screening Center, 2011)
